Measurements from patent publication US8809358B2, “Use of IκB-kinase inhibitors in pain therapy” (Sanofi-Aventis Deutschland GmbH, priority 2002, dated 2014).

Protein sequences, listed by entry. Tags and fused reporters are not part of them. Lines headed by an entry give the natural chain unless they say otherwise; changes in a name come on top.
UniProt O14920: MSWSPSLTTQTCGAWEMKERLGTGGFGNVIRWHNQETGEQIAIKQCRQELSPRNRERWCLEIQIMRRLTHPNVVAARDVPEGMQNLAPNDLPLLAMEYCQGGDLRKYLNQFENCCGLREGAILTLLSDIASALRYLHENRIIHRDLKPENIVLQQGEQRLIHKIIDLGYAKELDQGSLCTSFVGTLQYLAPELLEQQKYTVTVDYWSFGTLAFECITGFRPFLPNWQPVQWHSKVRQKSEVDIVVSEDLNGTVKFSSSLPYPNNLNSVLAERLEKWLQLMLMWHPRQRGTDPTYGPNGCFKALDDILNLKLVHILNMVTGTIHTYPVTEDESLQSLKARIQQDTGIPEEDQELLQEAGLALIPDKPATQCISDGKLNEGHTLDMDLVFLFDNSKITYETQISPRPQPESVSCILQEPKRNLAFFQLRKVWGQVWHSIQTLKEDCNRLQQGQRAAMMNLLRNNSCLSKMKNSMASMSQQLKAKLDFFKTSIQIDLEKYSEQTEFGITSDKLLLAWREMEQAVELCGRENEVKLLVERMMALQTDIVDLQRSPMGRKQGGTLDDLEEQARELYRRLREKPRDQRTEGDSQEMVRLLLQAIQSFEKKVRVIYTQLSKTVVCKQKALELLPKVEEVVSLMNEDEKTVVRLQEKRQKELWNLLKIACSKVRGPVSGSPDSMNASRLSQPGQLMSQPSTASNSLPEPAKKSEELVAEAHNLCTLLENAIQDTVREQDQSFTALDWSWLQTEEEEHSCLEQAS
UniProt O15111: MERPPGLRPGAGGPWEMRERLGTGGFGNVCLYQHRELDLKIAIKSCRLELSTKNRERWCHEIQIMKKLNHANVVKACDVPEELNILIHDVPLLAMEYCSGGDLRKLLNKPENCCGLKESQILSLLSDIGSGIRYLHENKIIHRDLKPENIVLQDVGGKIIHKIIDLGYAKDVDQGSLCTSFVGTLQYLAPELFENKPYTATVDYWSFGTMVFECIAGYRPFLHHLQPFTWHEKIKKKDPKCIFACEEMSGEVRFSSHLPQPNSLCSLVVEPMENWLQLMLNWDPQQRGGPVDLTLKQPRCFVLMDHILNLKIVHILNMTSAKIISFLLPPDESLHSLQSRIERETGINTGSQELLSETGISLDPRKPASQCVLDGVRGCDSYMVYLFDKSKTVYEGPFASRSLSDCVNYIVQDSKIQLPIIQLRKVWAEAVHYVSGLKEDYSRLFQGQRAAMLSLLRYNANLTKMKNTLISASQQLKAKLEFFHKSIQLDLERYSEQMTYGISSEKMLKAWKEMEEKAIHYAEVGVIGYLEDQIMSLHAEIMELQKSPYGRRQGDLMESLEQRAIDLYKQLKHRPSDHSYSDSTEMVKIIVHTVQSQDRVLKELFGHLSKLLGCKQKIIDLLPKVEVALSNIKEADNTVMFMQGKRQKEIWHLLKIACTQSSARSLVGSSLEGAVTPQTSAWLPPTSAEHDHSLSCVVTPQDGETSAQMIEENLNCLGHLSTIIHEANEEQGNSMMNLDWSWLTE

Experiments:
IκB-kinase = molecular target: T1, IκB-kinase (Homo sapiens, UniProt O14920+O15111); test: IκB-Kinase ELISA; type: biochemical
T1 construct: endogenous in cells; host or cells: HeLa S3 cell extract S100; ammonium sulfate cut and Superose-6 gel filtration (670 kDa fractions)
Experimental: The activity of the IκB-kinase was determined using an ELISA which comprised a biotinylated substrate peptide, which contained the amino acid sequence in the IκB protein from serine 32 to 36, and a specific polyclonal or monoclonal antibody (e.g. from New England Biolabs, Beverly, Mass., USA, Cat.: 9240), which only bound to the phosphorylated form of the IκB peptide. This complex was immobilized on an antibody-binding (protein A-coated) plate and detected using a conjugate composed of a biotin-binding protein and HRP (e.g. streptavidin-HRP). The activity was quantified with the aid of a standard curve constructed using substrate phosphopeptide.
In order to obtain the kinase complex, 10 ml of HeLa S3 cell extract S100 were diluted with 40 ml of 50 mM HEPES, pH 7.5, brought to 40% with respect to ammonium sulfate and incubated on ice for 30 minutes. The precipitated pellet was dissolved in 5 ml of SEC buffer (50 mM HEPES, pH 7.5, 1 mM DTT, 0.5 mM EDTA, 10 mM 2-glycerophosphate), centrifuged at 20 000 g for 15 minutes and filtered through a 0.22 μm filter. […] The absorption was measured at 450 nm. […] This standard curve was used to quantify the enzyme activity or its inhibition by the test substances.

[1] = system: Zymosan-induced paw inflammation; test: Zymosan-induced paw inflammation in the mouse: paw withdrawal time during thermal stimulation of the hind paw; type: in vivo; details: 7-day study, orally twice daily
Experimental: • Zymosan-induced paw inflammation in the mouse; • Parameter: paw withdrawal time during thermal stimulation of the hind paw. Experimental implementation: In short-term anesthesia using isoflurane, 25 μl of a suspension containing 50 mg of zymosan/ml were injected into the right hind paw of the experimental animal. The development of a hyperalgesia was then determined quantitatively as follows: Determining the Paw Withdrawal Time During Thermal Stimulation (Hargreave's Test; See Above). The experimental animal was placed in a transparent plastic chamber having a glass floor. As soon as the experimental animal was no longer moving, following the reconnaissance phase (about 5 min), an infrared light source was positioned directly below the hind paw to be stimulated and switched on. The lamp emitted focused infrared light of increasing intensity such that the skin temperature of the hind paw increased almost linearly. […] Shortly before the zymosan injection, and for from 7 to 14 days after the injection, the thermal pain threshold was determined once daily on the right hind paw and left hind paw. Subsequently, the integral of the area which was formed from the curves for the paw withdrawal times of the inflamed paw and the noninflamed paw (AUC, area between the curves, see tables 5 and 6) was determined as a measure of the hyperalgesia. […]

CNc1nccc(-c2cc3cc(C(=O)N[C@@H](CN(c4ccccc4)c4ccccc4)c4n[nH]c(=O)o4)ccc3[nH]2)n1 [Compound 13, N—[(S)-2-diphenylamino-1-(5-oxo-4,5-dihydro[1,3,4]oxadiazol-2-yl)ethyl]-2-(2-methylaminopyrimidin-4-yl)-1H-indole-5-carboxamide]
IC50 (IκB-kinase): 50 nM | single dose giving a significant therapeutic effect as compared with the vehicle group [1]: ≥ 8.3 mg/kg
